{
  "sequences": {"note": "Sequences of proteins named here, by UniProt entry; tags and fusion partners are left off. Residues count along the entry.", "UniProt P08581, 25-1390 limits assumed": "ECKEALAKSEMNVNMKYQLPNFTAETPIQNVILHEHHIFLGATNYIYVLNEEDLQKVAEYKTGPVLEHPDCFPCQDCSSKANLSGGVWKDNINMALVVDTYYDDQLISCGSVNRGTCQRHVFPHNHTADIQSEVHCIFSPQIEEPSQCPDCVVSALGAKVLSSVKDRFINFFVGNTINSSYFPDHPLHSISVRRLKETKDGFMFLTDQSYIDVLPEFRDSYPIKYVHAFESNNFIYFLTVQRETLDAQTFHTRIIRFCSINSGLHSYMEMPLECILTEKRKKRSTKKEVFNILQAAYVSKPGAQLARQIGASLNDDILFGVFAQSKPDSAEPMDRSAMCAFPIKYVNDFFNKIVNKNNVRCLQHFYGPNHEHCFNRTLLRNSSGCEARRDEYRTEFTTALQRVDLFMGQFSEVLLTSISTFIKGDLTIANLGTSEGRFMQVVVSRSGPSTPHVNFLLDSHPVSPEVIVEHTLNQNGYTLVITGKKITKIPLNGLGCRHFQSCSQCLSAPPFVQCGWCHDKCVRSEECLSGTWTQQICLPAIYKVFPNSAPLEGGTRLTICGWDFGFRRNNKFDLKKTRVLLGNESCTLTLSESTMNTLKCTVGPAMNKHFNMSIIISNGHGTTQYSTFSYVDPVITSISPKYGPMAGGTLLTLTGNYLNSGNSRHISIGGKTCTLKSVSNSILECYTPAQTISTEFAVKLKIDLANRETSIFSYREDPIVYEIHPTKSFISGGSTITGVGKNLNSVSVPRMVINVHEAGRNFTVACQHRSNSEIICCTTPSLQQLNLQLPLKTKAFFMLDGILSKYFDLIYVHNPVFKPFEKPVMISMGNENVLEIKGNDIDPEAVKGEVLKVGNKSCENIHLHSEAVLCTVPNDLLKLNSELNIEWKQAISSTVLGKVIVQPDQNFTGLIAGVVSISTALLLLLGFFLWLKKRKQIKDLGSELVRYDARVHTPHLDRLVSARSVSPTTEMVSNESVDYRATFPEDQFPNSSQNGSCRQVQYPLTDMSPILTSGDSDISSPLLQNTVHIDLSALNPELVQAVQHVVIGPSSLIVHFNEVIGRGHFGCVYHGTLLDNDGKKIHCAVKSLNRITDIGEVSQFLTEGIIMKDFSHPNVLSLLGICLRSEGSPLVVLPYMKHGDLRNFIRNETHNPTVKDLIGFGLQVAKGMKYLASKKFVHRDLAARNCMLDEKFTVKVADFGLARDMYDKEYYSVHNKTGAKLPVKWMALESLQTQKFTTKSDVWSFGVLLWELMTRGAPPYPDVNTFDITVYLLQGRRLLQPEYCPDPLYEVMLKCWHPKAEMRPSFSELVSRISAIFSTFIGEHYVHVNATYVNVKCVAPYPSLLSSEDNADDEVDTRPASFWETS"},
  "source": "patent US7998987B2",
  "about": "“Inhibitors of c-Met and uses thereof” (Vertex Pharmaceuticals Incorporated, priority 2005, dated 2011)",
  "target": "c-Met (Homo sapiens, UniProt P08581)",
  "experiment": "Ki determination for the inhibition of c-Met kinase activity (standard coupled enzyme system)",
  "key": {"[1]": {"conditions": "read-out: c-Met Ki, 200 μM ATP, 80 nM c-Met, 30° C."}},
  "note": "Read-outs that look alike come from different tables or passages of the source.",
  "data": [
    {"smiles": "Oc1ccc(Cc2nnc3sc(Nc4ccccc4)nn23)cc1F", "values": [
      {"measurement": "Ki", "setting": "read-out: c-Met Ki, 200 μM ATP, 10 μM polyGluTyr, 80 nM c-Met, 30° C.", "result": "100 to 2000", "unit": "nM"}
    ]},
    {"smiles": "C[C@@H](c1ccc(O)cc1)c1nnc2ccc(Nc3cc(Cl)ccc3OCCO)nn12", "values": [
      {"measurement": "Ki", "setting": "[1]", "result": "< 100", "unit": "nM"}
    ]},
    {"smiles": "CC(c1ccc(O)cc1)c1nnc2n1N=C(c1cccs1)CS2", "note": "(stereo not shown)", "values": [
      {"measurement": "Ki", "setting": "[1]", "result": "< 100", "unit": "nM"}
    ]},
    {"smiles": "OCCOc1ccc(Cl)cc1Nc1ccc2nnc(Cc3ccc(O)cc3)n2n1", "values": [
      {"measurement": "Ki", "setting": "[1]", "result": "< 100", "unit": "nM"}
    ]}
  ]
}
